Molecular target: human σ1 receptor (Homo sapiens, UniProt Q99720)
Design: key to the marks not given beside the values
Conditions: combined class for both Ki-σ1 (assay A1) and Ki-μ (assay A2); human receptors, radioligand binding

Amino acid sequences for entries named in this document (tags omitted).
UniProt Q99720, whole entry: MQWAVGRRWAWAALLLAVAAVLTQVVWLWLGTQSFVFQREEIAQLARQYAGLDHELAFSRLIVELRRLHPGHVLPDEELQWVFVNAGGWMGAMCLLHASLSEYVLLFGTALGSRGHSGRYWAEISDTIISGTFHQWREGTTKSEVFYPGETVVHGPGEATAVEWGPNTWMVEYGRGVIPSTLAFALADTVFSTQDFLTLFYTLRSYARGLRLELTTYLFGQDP

CCC(=O)N(CC1(N2CCN(Cc3ccccc3)CC2)CCNCC1)c1ccccc1
μ and σ1 dual (binding to the σ1 receptor and the μ-opioid receptor expressed as Ki): ++

Source: patent US10428051B2 (priority 2015, dated 2019)
